In patent publication US12441688B1, “CCR5 inhibitor” (KING SAUD UNIVERSITY, priority 2025, dated 2025) one finds IC50 data, which are given here for 1 substance.

By UniProt entry, the sequences of proteins in these tests, tags left out.
UniProt P51681, whole entry: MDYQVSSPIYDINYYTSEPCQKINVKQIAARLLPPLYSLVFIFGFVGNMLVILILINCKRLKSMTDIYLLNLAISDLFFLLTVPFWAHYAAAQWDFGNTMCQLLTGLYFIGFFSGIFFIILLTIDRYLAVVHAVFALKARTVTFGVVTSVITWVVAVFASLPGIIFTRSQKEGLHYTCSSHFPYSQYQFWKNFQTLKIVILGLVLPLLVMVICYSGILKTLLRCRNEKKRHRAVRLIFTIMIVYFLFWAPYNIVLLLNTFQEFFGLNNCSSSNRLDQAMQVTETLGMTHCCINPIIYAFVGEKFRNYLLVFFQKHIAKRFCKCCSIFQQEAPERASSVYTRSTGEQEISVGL

pIC50: −log10 of the molar value.

This assay addresses T1, CCR5 receptor (Homo sapiens, UniProt P51681).
T1 construct: expressed in transfected cells; host or cells: Chinese hamster ovary (CHO) cells expressing the CCR5 receptor, kept under blasticidin S selection
Briefly: CCR5 binding inhibition assay in CHO cells expressing the CCR5 receptor. Particulars: non-linear regression. An excerpt:
All of the reagents and cell lines were obtained from commercial suppliers like Sigma Aldrich, Merck India Ltd., Himedia, and Rankem chemicals. Chinese Hamster Ovaries (CHO) cells expressing the CCR5 receptor were maintained in Ham's F-12 medium supplemented with 10% fetal calf serum, 50 units of penicillin per milliliter, and 50 micrograms of streptomycin per milliliter, in the presence of 5 micrograms of blasticidin S hydrochloride per milliliter. […] The inhibitory activity of the compounds on CCR5 binding was calculated using the formula: [1−(E−N)/(P−N)]×100%.
In this formula, N represents the absorbance at 450 nm in the negative control (the control antibody), while P corresponds to the absorbance in the positive control (the detecting antibody). E corresponds to the absorbance of the test compounds.
The CCR5 binding profiles of 4-(4-((4-(5-isopropyl-3-methyl-1H-pyrazole-4-carbonyl)-1,4-diazepan-1-yl)methyl)phenoxy)benzonitrile compound were determined and compared with those of previously published CCR5 inhibitor, Maraviroc, using in vitro CCR5 inhibition studies. The data was analyzed using non-linear regression analysis to determine the IC50 values for both compounds.

Consider Maraviroc [reference compound], for which the pIC50 is 8.54.
